Literature values as cited in patent US9901577B2, “Oxoquinazolinyl-butanamide derivatives” (MERCK PATENT GMBH, priority 2013, dated 2018).

Biological target: T1, TNKS2 (Homo sapiens, UniProt Q9H2K2)
T1 sequence (Q9H2K2 1-1166): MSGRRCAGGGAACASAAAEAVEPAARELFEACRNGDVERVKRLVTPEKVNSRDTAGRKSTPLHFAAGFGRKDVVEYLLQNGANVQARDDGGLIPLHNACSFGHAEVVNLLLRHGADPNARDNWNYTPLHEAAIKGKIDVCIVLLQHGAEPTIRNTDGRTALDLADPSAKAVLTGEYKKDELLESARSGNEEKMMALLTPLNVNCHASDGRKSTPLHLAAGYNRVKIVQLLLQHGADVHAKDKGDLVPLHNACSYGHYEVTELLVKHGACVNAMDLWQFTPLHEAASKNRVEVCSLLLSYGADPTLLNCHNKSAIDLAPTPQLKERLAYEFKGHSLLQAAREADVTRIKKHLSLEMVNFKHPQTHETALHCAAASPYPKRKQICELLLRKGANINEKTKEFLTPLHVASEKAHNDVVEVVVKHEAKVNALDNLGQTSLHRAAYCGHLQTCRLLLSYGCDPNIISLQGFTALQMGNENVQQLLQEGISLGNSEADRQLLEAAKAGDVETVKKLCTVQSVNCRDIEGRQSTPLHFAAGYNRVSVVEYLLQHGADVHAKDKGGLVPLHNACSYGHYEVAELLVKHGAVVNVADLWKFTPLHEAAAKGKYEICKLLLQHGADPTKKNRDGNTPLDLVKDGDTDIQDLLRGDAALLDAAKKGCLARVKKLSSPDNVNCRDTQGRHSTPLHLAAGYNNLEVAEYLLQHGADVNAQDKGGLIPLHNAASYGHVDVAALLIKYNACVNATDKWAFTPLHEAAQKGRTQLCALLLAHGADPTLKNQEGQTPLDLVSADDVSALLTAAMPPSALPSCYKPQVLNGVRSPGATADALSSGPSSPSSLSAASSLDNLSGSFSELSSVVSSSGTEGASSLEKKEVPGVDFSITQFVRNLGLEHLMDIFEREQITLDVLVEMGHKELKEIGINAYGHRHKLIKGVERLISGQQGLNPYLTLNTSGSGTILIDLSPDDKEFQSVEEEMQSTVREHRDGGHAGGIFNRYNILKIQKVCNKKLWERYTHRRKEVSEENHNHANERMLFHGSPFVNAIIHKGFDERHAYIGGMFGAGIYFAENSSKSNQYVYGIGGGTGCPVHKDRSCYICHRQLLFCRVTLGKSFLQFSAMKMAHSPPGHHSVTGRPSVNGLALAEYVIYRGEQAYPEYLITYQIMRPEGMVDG
Details: literature data; cited from earlier work

O=c1[nH]c(-c2ccc(C(F)(F)F)cc2)nc2ccccc12
IC50: 22 nM
